According to ChEMBL document CHEMBL5236598, “Lead Optimization and Avoidance of Metabolic-perturbing Motif Developing Novel Diarylpyrimidines as Potent HIV-1 NNRTIs” (J Med Chem, 2022):

Target: Human immunodeficiency virus type 1 reverse transcriptase (Human immunodeficiency virus 1, UniProt Q72547)
Experiment: Binding affinity to HIV-1 reverse transcriptase assessed as dissociation constant by SPR analysis

Compound: Cc1cc(C#N)cc(C)c1Oc1nc(Nc2ccc(C#N)cc2)nc(N)c1Br [ETRAVIRINE]
- pKd: 5.84

pKd: −log10 of the molar value.
